Values quoted from earlier work, collected in patent publication US10722492B2, “Andrographolide treats progressive forms of multiple sclerosis” (INNOBIOSCIENCES, LLC, priority 2016, dated 2020).

Experiments:
[1] = system: subjects with Secondary progressive MS with relapses; conditions: vs placebo, cited from earlier work
SP & PPMS forms = conditions: summary of prior art; cited from earlier work
[2] = system: patients with Secondary progressive MS with relapses; conditions: cited from earlier work

B1: Interferon beta-1a (protein, UniProt P01574 22-187, looked up)
Interferon beta: MSYNLLGFLQRSSNFQCQKLLWQLNGRLEYCLKDRMNFDIPEEIKQLQQFQKEDAALTIYEMLQNIFAIFRQDSSSTGWNETIVENLLANVYHQINHLKTVLEEKLEKEDFTRGKLMSSLHLKRYYGRILHYLKAKEYSHCAWTIVRVEILRNFYFINRLTGYLRN
For B1, the MRI activity ([1]; p<0.001) is listed as “less MRI activity”, the fewer relapses ([1]; two years, p=0.008) is listed as 33% and the MSFC decrease ([1]; two years, p=0.033) is listed as 40.4%. The “MS Quality of Life scales” value ([1]; two years) was “better outcome in eight of eleven”, the “slowing down / reduction of disability progression in progressive MS” value (SP & PPMS forms) was “failed to demonstrate efficacy” and the disability progression ([2]; 3 years, p=0.146) was “did not significantly affect disability progression”. The MRI outcomes ([2]; 3 years) was “significant treatment benefit” and the relapse rate ([2]; reduced from 0.71, p<0.001) was 0.50 per year.
